Experimental data taken from article PMC7290320.

Columns and labels:
[1] = biological target: zebrafish Rbpr2 Leu273Ser mutant, V5-tagged (zebrafish)
[2] = biological target: zebrafish Rbpr2 Ser268Ala mutant, V5-tagged (zebrafish)
[3] = biological target: zebrafish Rbpr2 Tyr272Pro mutant, V5-tagged (zebrafish)

Measured: [3H]ROL-RBP4 uptake at 60 min in stable NIH3T3/LRAT cells, scintillation counting (% activity of WT-Rbpr2)

human plasma retinol-binding protein (RBP4), retinol-bound (holo-RBP4) (from UniProt P02753 19-194) (ligand)
< 12: all assays above
